Reference: US11865109B2, “Formulations of (S)-3-amino-6-methoxy-N-(3,3,3-trifluoro-2-hydroxy-2-methylpropyl)-5-(trifluoromethyl)picolinamide” (NOVARTIS AG, priority 2019, dated 2024)

Assay: ADME study: plasma PK of Compound 1 at steady state (LC-MS/MS)
Type: in vivo, human
Settings: Day 5, 0-12 hours, mean of N = 6
Experimental: Six healthy male subjects of aged 18 to 55 years (inclusive) were included in this study.
All treatment administrations (Day 1 to Day 12) occurred approximately 30 minutes following consumption of a standardized meal. Treatments were administered with ˜240 mL water as 4×100 mg hard gelatin capsules.
Pharmacokinetic samples were obtained and evaluated in all subjects.
The PK parameters were based on the actual recorded sampling times and non-compartmental method(s) with Phoenix WinNonLin (Version 6.4). The terminal rate constant (λz) was determined from automated (WinNonlin algorithm) linear regression of at least the last three points with non-zero concentrations in the terminal phase of the log-transformed concentration-time profile.

- CL/F, plasma Compound 1: 56.8 L/h
Compound: COc1nc(C(=O)NC[C@](C)(O)C(F)(F)F)c(N)cc1C(F)(F)F [Compound 1, (S)-3-amino-6-methoxy-N-(3,3,3-trifluoro-2-hydroxy-2-methylpropyl)-5-(trifluoromethyl)picolinamide]
